Drawing on US7282496B2, “Allenic aryl sulfonamide hydroxamic acids as matrix metalloproteinase and TACE inhibitors” (Wyeth Holdings Corporation, priority 2001, dated 2007), this text covers IC50 for one compound.

In the assay the target is T1, MMP-1 (Homo sapiens, UniProt P03956).
T1 sequence (P03956 100-469): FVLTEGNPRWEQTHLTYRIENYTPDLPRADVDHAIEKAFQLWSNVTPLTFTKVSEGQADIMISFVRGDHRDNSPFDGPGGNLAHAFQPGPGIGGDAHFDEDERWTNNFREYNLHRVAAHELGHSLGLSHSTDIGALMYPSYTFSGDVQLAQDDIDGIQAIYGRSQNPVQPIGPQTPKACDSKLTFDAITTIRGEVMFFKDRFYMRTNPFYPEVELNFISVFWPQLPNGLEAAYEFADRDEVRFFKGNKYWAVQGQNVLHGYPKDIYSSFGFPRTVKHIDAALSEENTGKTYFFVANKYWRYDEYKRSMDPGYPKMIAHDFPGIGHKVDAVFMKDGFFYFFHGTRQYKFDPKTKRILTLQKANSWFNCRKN
The assay can be described thus: MMP-1 inhibition, thiopeptide or fluorescent peptide substrate test procedure. To be noted: in vitro enzyme inhibition. In kind it is biochemical. As for the experimental part: Test Procedures for Measuring MMP-1, MMP-9, and MMP-13 Inhibition
These standard pharmacological test procedures are based on the cleavage of a thiopeptide substrates such as Ac-Pro-Leu-Gly(2-mercapto-4-methyl-pentanoyl)-Leu-Gly-OEt by the matrix metalloproteinases MMP-1, MMP-13 (collagenases) or MMP-9 (gelatinase), which results in the release of a substrate product that reacts calorimetrically with DTNB (5,5′-dithiobis(2-nitro-benzoic acid)). The enzyme activity is measured by the rate of the color increase. The thiopeptide substrate is made up fresh as a 20 mM stock in 100% DMSO and the DTNB is dissolved in 100% DMSO as a 100 mM stock and stored in the dark at room temperature. […] The buffer, enzyme, vehicle or inhibitor, and DTNB/substrate are added in this order to a 96 well plate (total reaction volume of 200 μl) and the increase in color is monitored spectrophotometrically for 5 minutes at 405 nm on a plate reader and the increase in color over time is plotted as a linear line.
Alternatively, a fluorescent peptide substrate is used. […] Upon cleavage of the substrate by an MMP, the fluorescence that is generated is quantitated on the fluorescence plate reader. […] The reaction is read (excitation 340 nm, emission 444 nm) for 10 min. and the increase in fluorescence over time is plotted as a linear line. […]

The structures appear in SMILES notation.

The term IC50 denotes the concentration that inhibits the measured activity by half. Read a low IC50 as inhibition by little substance. In turn, `C=C=CCOc1ccc(S(=O)(=O)N(C)C(C(=O)NO)C(C)C)cc1` (stereo not shown) [Example 16, 2-[{[4-(2,3-Butadienyloxy)phenyl]sulfonyl}(methyl)amino]-N-hydroxy-3-methylbutanamide] had an IC50 of 138 nM.
